This passage reports IC50 results from BindingDB's records for patent US9273014 (Bristol-Myers Squibb Co., 2016).

Protein sequences, listed by entry. Tags and fused reporters are not part of them.
UniProt Q9UM47, whole entry: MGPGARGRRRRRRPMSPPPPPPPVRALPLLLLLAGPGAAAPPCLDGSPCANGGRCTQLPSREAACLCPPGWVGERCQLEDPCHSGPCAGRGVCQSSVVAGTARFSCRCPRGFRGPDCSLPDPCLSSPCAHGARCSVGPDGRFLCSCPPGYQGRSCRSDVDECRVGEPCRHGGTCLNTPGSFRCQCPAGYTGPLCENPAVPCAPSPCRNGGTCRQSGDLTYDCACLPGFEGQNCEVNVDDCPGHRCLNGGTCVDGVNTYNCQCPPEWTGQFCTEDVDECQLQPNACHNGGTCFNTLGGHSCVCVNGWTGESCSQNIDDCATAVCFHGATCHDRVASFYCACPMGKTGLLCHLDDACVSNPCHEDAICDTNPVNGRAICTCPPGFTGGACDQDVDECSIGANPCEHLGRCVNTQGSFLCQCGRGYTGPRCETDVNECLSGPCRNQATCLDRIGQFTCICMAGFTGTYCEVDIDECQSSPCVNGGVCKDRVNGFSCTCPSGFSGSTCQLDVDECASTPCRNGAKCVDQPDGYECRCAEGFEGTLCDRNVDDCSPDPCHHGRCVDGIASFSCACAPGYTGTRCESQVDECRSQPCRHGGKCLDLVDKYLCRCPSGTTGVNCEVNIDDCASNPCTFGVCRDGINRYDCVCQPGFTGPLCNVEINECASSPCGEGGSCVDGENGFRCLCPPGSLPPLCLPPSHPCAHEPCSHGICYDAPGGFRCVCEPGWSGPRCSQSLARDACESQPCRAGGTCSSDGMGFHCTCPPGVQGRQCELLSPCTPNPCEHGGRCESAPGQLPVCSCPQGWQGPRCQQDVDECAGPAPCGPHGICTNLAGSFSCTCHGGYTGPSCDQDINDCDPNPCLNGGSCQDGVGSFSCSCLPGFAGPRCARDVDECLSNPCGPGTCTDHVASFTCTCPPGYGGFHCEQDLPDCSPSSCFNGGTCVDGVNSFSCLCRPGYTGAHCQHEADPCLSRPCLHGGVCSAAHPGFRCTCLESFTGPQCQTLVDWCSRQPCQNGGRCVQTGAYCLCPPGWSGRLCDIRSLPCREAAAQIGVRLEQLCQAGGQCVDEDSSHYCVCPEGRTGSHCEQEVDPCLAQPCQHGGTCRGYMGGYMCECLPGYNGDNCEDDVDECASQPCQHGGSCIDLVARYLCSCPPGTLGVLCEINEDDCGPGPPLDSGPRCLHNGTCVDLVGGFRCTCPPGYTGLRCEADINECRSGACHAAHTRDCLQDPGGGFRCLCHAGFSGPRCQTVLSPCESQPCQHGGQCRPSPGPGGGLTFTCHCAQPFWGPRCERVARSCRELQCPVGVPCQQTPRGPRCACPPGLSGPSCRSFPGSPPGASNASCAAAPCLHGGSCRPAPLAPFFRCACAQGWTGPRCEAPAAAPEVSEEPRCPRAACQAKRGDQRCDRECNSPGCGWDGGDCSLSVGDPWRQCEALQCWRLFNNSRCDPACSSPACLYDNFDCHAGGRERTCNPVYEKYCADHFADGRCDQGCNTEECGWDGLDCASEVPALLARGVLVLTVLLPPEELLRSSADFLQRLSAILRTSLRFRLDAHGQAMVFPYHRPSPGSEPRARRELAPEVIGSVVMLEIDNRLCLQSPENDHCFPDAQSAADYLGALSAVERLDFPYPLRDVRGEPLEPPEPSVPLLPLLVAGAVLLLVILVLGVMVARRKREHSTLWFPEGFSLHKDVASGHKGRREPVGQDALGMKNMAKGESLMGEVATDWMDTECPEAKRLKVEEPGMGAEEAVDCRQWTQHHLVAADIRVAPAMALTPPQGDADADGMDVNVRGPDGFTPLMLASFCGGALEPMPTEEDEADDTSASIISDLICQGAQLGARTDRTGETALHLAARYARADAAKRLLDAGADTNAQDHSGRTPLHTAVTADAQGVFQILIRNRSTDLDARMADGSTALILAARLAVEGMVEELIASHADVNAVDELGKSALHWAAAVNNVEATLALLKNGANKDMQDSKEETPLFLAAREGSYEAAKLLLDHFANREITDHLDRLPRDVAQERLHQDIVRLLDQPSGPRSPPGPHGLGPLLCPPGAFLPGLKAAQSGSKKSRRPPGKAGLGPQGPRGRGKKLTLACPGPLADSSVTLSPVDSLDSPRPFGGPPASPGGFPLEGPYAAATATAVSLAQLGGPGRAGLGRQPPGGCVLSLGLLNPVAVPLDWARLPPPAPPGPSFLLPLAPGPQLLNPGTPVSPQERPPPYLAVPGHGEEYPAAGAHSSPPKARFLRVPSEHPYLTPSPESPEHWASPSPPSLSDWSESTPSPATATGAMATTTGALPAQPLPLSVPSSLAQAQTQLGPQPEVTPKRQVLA
UniProt P46531, whole entry: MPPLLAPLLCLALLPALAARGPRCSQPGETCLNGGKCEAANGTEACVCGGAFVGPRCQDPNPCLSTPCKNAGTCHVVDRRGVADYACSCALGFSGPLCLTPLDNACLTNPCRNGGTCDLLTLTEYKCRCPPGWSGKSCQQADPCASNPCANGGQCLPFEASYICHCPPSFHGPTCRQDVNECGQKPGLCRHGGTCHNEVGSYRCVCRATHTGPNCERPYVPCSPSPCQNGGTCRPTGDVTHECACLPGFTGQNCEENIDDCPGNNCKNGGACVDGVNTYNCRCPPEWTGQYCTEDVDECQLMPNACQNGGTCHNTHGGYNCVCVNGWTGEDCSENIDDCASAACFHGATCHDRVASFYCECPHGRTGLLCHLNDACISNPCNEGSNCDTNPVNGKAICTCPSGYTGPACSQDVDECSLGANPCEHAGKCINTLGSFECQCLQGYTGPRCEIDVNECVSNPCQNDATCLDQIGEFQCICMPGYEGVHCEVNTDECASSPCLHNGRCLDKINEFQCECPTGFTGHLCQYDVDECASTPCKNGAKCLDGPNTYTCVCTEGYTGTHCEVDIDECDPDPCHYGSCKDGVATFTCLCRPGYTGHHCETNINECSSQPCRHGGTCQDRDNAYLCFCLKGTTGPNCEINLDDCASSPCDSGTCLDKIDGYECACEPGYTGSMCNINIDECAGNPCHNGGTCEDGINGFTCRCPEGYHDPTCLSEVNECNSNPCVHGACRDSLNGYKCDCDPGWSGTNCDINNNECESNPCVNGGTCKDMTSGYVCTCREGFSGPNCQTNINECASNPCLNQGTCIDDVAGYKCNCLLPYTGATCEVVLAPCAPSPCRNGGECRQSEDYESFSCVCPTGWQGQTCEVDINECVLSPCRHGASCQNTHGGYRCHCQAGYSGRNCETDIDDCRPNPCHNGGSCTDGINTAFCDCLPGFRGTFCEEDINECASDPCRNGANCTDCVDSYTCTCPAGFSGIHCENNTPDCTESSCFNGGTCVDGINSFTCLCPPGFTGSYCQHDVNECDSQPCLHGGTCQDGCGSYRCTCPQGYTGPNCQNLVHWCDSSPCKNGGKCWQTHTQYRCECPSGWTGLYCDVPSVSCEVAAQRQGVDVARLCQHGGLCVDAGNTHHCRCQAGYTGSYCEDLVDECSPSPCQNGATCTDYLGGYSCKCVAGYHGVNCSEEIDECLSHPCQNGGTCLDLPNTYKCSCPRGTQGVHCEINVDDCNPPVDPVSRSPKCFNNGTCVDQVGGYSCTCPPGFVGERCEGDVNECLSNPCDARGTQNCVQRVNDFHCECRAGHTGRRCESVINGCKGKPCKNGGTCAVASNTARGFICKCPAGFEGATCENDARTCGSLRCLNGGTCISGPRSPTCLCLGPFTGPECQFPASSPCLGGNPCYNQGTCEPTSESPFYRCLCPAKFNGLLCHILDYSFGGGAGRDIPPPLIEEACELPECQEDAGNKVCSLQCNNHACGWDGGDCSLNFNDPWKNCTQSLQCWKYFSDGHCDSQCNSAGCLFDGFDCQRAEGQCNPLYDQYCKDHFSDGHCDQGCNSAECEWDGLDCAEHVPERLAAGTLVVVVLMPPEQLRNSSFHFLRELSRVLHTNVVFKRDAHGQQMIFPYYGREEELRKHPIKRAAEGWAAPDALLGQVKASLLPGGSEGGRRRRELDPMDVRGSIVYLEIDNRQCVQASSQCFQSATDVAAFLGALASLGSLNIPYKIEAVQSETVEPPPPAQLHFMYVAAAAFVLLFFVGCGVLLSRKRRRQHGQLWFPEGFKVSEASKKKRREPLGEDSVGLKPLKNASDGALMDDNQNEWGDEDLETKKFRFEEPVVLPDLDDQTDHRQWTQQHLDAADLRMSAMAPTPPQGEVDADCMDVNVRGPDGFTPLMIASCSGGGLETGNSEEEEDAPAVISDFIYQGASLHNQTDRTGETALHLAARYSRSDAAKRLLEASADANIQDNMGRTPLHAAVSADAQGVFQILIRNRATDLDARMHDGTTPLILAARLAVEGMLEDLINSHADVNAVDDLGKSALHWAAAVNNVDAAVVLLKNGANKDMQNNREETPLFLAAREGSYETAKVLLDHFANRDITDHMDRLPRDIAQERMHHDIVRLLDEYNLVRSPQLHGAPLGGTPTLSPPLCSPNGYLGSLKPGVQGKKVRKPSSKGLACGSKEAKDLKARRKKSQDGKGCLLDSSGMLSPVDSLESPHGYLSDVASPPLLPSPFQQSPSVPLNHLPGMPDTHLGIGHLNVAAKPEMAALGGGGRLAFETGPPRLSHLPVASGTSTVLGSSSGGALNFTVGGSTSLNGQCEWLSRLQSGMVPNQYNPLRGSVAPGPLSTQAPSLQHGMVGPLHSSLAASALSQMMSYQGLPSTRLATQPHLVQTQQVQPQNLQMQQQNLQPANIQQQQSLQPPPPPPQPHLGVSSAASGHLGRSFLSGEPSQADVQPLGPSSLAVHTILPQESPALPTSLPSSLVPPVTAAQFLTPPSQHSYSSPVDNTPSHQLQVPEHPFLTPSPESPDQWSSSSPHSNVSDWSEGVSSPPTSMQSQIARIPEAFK

As usually defined, the IC50 is the concentration that inhibits the measured activity by half. A low value points to greater potency.

One assay deals with Neurogenic locus notch homolog protein 3 (Human, UniProt Q9UM47). Briefly: Biological Assay.
The molecule `NC(=O)[C@@H](CCC(F)(F)F)[C@@H](CCC(F)(F)F)C(=O)N[C@H]1N=C(c2ccc(CO)cc2)c2ccccc2NC1=O` [US9273014, 30] came in with a concentration for half-maximal inhibition (IC50) of 7.9 nM.

For the next assay, the target named is Neurogenic locus notch homolog protein 1 (Homo sapiens, UniProt P46531). Briefly: Biological Assay.
`COc1cccc2c1NC(=O)[C@@H](NC(=O)[C@H](CCC(F)(F)F)[C@H](CCC(F)(F)F)C(N)=O)N=C2c1ccc(Cl)cn1` [US9273014, 34] displayed an IC50 of 4.8 nM.
As for `CC(C)c1cccc2c1NC(=O)[C@@H](NC(=O)[C@H](CCC(F)(F)F)[C@H](CCC(F)(F)F)C(N)=O)N=C2c1ccccc1` [US9273014, 13], half-maximal inhibition (IC50) was put at 3.4 nM.
Regarding `NC(=O)[C@@H](CCC(F)(F)F)[C@@H](CCC(F)(F)F)C(=O)N[C@H]1N=C(c2ccc(CO)cc2)c2ccccc2NC1=O` [US9273014, 30], half-maximal inhibition (IC50) was put at 4.8 nM.
The molecule `Cc1cccc(C2=N[C@H](NC(=O)[C@H](CCC(F)(F)F)[C@H](CCC(F)(F)F)C(N)=O)C(=O)Nc3c2cccc3C(F)(F)F)c1` [US9273014, 11] registered a half-inhibitory concentration (IC50) of 8.2 nM.
In turn, `COc1cccc2c1NC(=O)[C@@H](NC(=O)[C@H](CCC(F)(F)F)[C@H](CCC(F)(F)F)C(N)=O)N=C2c1cccc(C)c1` [US9273014, 29] registered an IC50 of 3.9 nM.
